## Binding of CDR-mutated scFvs to a peptide of the spike HR2 region

From the AlphaSeq antibody data of Engelhart et al. 2022 (doi:10.1038/s41597-022-01779-4), copy in the FLAb collection.

All variants were tested on one target, the spike HR2 peptide PDVDLGDISGINAS (SARS-CoV-2).

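The parent was found by panning a naive human phage display library on the peptide. Library AAYL49 holds single substitutions and randomly drawn double and triple substitutions in the CDRs. The scFvs were displayed on barcoded MATa yeast, the peptide on MATalpha yeast. After mating in shaken culture at 30 °C for 16 h, diploids were selected and their barcode pairs sequenced. Each replicate has its own calibration line, from reference interactions of the BCL2 family. Each pool was mated in three replicate cultures.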

Each scFv is VH, three GGGGS repeats, VL, as in the parent Ab-14, and differs from it in the CDRs of the heavy chain only.
VH: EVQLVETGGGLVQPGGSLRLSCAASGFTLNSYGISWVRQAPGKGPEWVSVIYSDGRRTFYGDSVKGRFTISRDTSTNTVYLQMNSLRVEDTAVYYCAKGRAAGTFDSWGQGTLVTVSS
VL: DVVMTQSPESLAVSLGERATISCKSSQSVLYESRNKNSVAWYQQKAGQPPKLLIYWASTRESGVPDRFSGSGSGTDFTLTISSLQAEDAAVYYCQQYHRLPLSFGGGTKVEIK

Positions count from residue 1 of the parent VH; Y32L puts L in place of Y.
Scale: log10 of Kd in nM, estimated from mating counts; low values are strong binders.
A mean of the replicates is given; it leaves out those without a signal.
"ND" marks a missing value. The strain was present, yet no cells mated with the target were sequenced in that replicate, which points to weak or no binding.

{"changes": "Y32L I51H A102E", "replicates, log10 nM": "4.59 / 3.84 / 4.24", "mean log10 Kd (nM)": "4.23", "signal with controls": "2 of 9 (4.46)"}
{"changes": "G33A G103R F105Q", "replicates, log10 nM": "ND / ND / ND", "mean log10 Kd (nM)": "ND", "signal with controls": "1 of 9 (5.68)"}
{"changes": "T58Y A102D S107D", "replicates, log10 nM": "ND / 3.16 / ND", "mean log10 Kd (nM)": "3.16", "signal with controls": "2 of 9 (3.69)"}
{"changes": "G55L F105G", "replicates, log10 nM": "ND / ND / 3.17", "mean log10 Kd (nM)": "3.17", "signal with controls": "0 of 9"}
{"changes": "G33V F59M V64Q", "replicates, log10 nM": "3.97 / ND / ND", "mean log10 Kd (nM)": "3.97", "signal with controls": "2 of 9 (4.49)"}
{"changes": "Y32V R56K K65E", "replicates, log10 nM": "2.13 / 2.32 / 3.33", "mean log10 Kd (nM)": "2.59", "signal with controls": "2 of 9 (4.22)"}
{"changes": "N30L I34L G99A", "replicates, log10 nM": "ND / 1.92 / ND", "mean log10 Kd (nM)": "1.92", "signal with controls": "0 of 9"}
{"changes": "T28G S63W K65I", "replicates, log10 nM": "ND / ND / ND", "mean log10 Kd (nM)": "ND", "signal with controls": "0 of 9"}
{"changes": "S53Q T58E G99L", "replicates, log10 nM": "ND / ND / ND", "mean log10 Kd (nM)": "ND", "signal with controls": "2 of 9 (3.31)"}
{"changes": "G26Y T28W A102I", "replicates, log10 nM": "ND / ND / ND", "mean log10 Kd (nM)": "ND", "signal with controls": "2 of 9 (3.65)"}
{"changes": "S35H I51N G61S", "replicates, log10 nM": "ND / ND / ND", "mean log10 Kd (nM)": "ND", "signal with controls": "0 of 9"}
{"changes": "I34V S53C S63N", "replicates, log10 nM": "ND / ND / ND", "mean log10 Kd (nM)": "ND", "signal with controls": "0 of 9"}
{"changes": "G26D V50P D62Y", "replicates, log10 nM": "ND / ND / ND", "mean log10 Kd (nM)": "ND", "signal with controls": "1 of 9 (2.96)"}
{"changes": "I51E G99R R100H", "replicates, log10 nM": "ND / ND / ND", "mean log10 Kd (nM)": "ND", "signal with controls": "0 of 9"}
{"changes": "F27D R100C", "replicates, log10 nM": "0.81 / 0.78 / 0.86", "mean log10 Kd (nM)": "0.81", "signal with controls": "0 of 9"}
{"changes": "R100Y", "replicates, log10 nM": "1.62 / 1.66 / 1.96", "mean log10 Kd (nM)": "1.75", "signal with controls": "1 of 9 (4.27)"}
{"changes": "Y32H R56M D62L", "replicates, log10 nM": "ND / ND / ND", "mean log10 Kd (nM)": "ND", "signal with controls": "2 of 9 (4.39)"}
{"changes": "D62K G99K A101F", "replicates, log10 nM": "ND / ND / ND", "mean log10 Kd (nM)": "ND", "signal with controls": "0 of 9"}
{"changes": "F27S L29G Y32K", "replicates, log10 nM": "ND / ND / ND", "mean log10 Kd (nM)": "ND", "signal with controls": "0 of 9"}
{"changes": "Y32T Y52P K65F", "replicates, log10 nM": "ND / ND / 4.91", "mean log10 Kd (nM)": "4.91", "signal with controls": "4 of 9 (4.19)"}
{"changes": "F27H T58L A102M", "replicates, log10 nM": "ND / ND / ND", "mean log10 Kd (nM)": "ND", "signal with controls": "1 of 9 (3.67)"}
{"changes": "G26I S35A T104Y", "replicates, log10 nM": "ND / ND / ND", "mean log10 Kd (nM)": "ND", "signal with controls": "0 of 9"}
{"changes": "Y32S G61M", "replicates, log10 nM": "ND / 5.59 / 5.53", "mean log10 Kd (nM)": "5.56", "signal with controls": "3 of 9 (4.62)"}
{"changes": "D54V R56Q G61L", "replicates, log10 nM": "ND / ND / ND", "mean log10 Kd (nM)": "ND", "signal with controls": "0 of 9"}

In this assay the parent's reference entry averaged 0.65; its copy inside this library read 4.11 (one replicate of three).
Background: pairings of library AAYL49 with three empty control strains gave a value in 15% of cases (median 4.06, 5th percentile 2.83). Values in that range, when seen in few replicates, are hard to tell from nonspecific mating. The control count says in how many pairings with the empty strains this scFv gave a signal, with their mean in brackets.